# Literature values in patent US6803486B2, “Selective neuronal nitric oxide synthase inhibitors” (Northwestern University, priority 2001, dated 2004).
# Sequences of proteins named here, by UniProt entry; tags and fusion partners are left off.
# UniProt P29476, whole entry: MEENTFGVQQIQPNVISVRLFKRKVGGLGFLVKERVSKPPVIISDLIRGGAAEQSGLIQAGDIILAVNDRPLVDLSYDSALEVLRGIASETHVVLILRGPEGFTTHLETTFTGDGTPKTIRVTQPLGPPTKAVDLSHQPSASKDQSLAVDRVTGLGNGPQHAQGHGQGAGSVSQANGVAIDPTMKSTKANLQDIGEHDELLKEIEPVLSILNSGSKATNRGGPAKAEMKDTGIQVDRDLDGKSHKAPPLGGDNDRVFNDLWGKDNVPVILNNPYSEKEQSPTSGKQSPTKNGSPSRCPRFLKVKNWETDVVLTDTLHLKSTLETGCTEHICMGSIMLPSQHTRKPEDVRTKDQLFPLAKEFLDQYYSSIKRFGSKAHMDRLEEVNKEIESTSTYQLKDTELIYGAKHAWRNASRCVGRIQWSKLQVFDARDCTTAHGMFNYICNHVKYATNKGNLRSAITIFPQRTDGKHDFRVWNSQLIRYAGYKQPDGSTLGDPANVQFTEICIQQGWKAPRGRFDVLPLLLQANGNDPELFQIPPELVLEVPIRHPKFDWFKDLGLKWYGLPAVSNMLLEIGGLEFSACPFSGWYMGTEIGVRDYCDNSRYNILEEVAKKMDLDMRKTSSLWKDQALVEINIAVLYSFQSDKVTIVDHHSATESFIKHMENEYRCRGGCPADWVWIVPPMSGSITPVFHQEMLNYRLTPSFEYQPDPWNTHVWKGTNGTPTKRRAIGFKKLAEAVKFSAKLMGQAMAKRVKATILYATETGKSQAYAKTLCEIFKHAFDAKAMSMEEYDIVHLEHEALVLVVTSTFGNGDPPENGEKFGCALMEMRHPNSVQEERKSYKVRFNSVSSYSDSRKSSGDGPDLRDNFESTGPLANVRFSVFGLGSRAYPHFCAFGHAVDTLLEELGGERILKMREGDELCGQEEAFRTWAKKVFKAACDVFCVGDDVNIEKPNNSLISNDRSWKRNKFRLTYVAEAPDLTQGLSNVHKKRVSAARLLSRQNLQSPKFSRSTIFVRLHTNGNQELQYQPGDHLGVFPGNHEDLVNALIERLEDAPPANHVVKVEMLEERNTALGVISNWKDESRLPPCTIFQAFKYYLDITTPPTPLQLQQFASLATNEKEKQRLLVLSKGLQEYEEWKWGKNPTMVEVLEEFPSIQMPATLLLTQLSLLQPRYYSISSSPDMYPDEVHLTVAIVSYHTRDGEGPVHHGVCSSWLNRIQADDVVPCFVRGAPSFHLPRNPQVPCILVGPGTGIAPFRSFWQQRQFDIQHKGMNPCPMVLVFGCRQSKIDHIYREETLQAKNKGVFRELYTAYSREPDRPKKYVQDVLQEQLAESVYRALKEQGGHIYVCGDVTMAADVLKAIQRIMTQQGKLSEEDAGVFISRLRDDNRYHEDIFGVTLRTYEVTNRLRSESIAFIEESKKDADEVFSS
# Biological target: recombinant rat nNOS (Rattus norvegicus, UniProt P29476)
# Conditions: Table 1; ratio of Ki; data taken from literature; cited from earlier work
Structure (SMILES),Selectivity eNOS/nNOS,Selectivity iNOS/nNOS
N=C(NCCC[C@H](N)C(=O)NCCN)N[N+](=O)[O-],368,185
N=C(NCCC[C@H](N)C(=O)NCCCCN)N[N+](=O)[O-],200,308
